# scFv variants of Ab-14 (light chain) against a SARS-CoV-2 spike peptide

Target: peptide PDVDLGDISGINAS, taken from heptad repeat 2 (HR2) of SARS-CoV-2 spike.

Ab-14 is the parent antibody, in scFv form: VH, then three GGGGS repeats, then VL. The heavy chain is unchanged in all variants.
VH: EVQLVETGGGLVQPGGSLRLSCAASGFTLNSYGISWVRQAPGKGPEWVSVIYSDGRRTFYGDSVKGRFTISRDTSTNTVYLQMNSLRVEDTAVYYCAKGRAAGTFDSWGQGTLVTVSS
VL: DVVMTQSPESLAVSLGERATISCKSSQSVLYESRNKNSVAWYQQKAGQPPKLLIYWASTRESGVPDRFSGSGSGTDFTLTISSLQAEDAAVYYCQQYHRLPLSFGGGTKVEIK

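AAYL50 was designed without a model: most single CDR substitutions and a random sample of double and triple ones. AlphaSeq pools MATa yeast showing the antibodies with MATalpha yeast showing the peptide. The frequency of each diploid, read from paired DNA barcodes, reflects how well the two displayed proteins bind. A regression on co-assayed BCL2-family reference pairs converts the normalised counts of each replicate to an apparent Kd. Mating was done three times.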

Changes read parent residue, position, new residue, counted from the first residue of the VL shown.
Affinities are written as log10 Kd with Kd in nM; a lower number is a better binder.
The mean shown is taken over the replicates in which the pair was detected.
"nd" means that the variant was in the library but no mating with the target was seen in that replicate; the authors take this as a sign of poor binding, and no number exists.

| changes | log10 Kd, replicates | mean, log10 nM | empty controls |
|---|---|---|---|
| Y31G R60S E61H | 2.93 / 2.34 / 4.10 | 3.13 | 1 of 9 (4.78) |
| N37W S38G R99M | 1.77 / 1.98 / 2.48 | 2.08 | 0 of 9 |
| S28E R34D P101C | nd / 3.46 / nd | 3.46 | 1 of 9 (3.83) |
| W56S R60N L102M | 2.68 / nd / nd | 2.68 | 1 of 9 (3.10) |
| V39C A40N Q96W | nd / nd / nd | nd | 3 of 9 (4.37) |
| A40P S58V H98Y | 0.82 / 1.06 / 0.89 | 0.92 | 2 of 9 (4.68) |
| T59G Q95M P101C | nd / 5.73 / nd | 5.73 | 4 of 9 (5.08) |
| S26K Y31V S62K | 3.16 / 2.65 / 2.89 | 2.90 | 0 of 9 |
| S28A N35D R99T | 1.22 / 1.06 / 0.77 | 1.02 | 0 of 9 |
| K24G N35H R60M | nd / nd / nd | nd | 0 of 9 |
| Q27R V39H P101W | nd / nd / nd | nd | 0 of 9 |
| V29F L30V | 0.71 / 1.14 / 1.02 | 0.96 | 1 of 9 (3.42) |
| S62Y Y97M S103R | nd / 3.76 / nd | 3.76 | 1 of 9 (3.30) |
| K24Y Q27R K36F | 2.03 / 1.85 / 1.96 | 1.95 | 0 of 9 |
| E32L L100A P101N | nd / 5.04 / nd | 5.04 | 1 of 9 (4.77) |
| K24T E32I Q95K | nd / nd / nd | nd | 0 of 9 |
| Q27C T59V Y97F | 2.50 / 2.04 / 2.30 | 2.28 | 4 of 9 (4.55) |
| A40N | 4.15 / nd / nd | 4.15 | 4 of 9 (3.95) |
| V29A W56L T59E | 0.60 / 0.84 / 0.95 | 0.79 | 0 of 9 |
| T59I Y97N R99Y | 4.62 / 4.54 / nd | 4.58 | 1 of 9 (3.24) |
| S28F Y31Q T59W | 1.94 / 1.74 / 1.83 | 1.84 | 2 of 9 (4.90) |
| R34L S38V T59F | 3.91 / nd / 3.96 | 3.93 | 2 of 9 (3.50) |
| Y31I R60M Q96E | 3.82 / 3.78 / 4.96 | 4.19 | 7 of 9 (4.22) |
| S26N S28T S62Y | 1.77 / 1.70 / 1.66 | 1.71 | 0 of 9 |
| V39D S58G L102I | 4.78 / nd / nd | 4.78 | 1 of 9 (2.40) |
| L30F K36W | 1.19 / 1.33 / 1.33 | 1.28 | 3 of 9 (4.05) |
| S25M A57W R99E | nd / nd / nd | nd | 0 of 9 |
| Y31D T59E | -0.07 / 0.19 / 0.14 | 0.09 | 0 of 9 |
| Y31Q T59L P101N | 3.67 / 3.57 / 2.66 | 3.30 | 3 of 9 (4.11) |
| Q27I T59S R99Q | nd / nd / nd | nd | 3 of 9 (3.42) |
| Y31K V39P Y97F | 4.00 / 3.74 / 4.74 | 4.16 | 5 of 9 (4.36) |
| N37W R60A Q96S | nd / 3.52 / nd | 3.52 | 1 of 9 (3.61) |
| L30H R60Q Y97Q | nd / nd / nd | nd | 0 of 9 |
| Y31R K36L W56S | nd / nd / nd | nd | 1 of 9 (4.39) |
| N37T W56I T59E | 4.10 / nd / nd | 4.10 | 2 of 9 (3.07) |
| W56H Q96K H98C | 0.83 / 1.25 / 1.17 | 1.08 | 3 of 9 (4.70) |
| Q96I H98Y | 2.37 / 1.89 / 1.77 | 2.01 | 0 of 9 |
| E61V | -0.05 / 0.48 / 0.19 | 0.21 | 0 of 9 |
| H98F P101S S103Y | 0.62 / 0.83 / 0.85 | 0.76 | 7 of 9 (5.19) |
| E61Q L102Q S103N | nd / nd / nd | nd | 0 of 9 |
| S33E A40D S58H | nd / 2.84 / nd | 2.84 | 3 of 9 (4.11) |
| V39C P101R S103H | nd / 4.13 / 6.03 | 5.08 | 6 of 9 (4.61) |
| L30N Y31P L102E | 2.33 / 2.24 / 1.79 | 2.12 | 8 of 9 (4.38) |
| S33E R34G Q96R | 3.38 / 3.14 / nd | 3.26 | 1 of 9 (4.43) |
| R34G N35D | 0.09 / 0.53 / 0.14 | 0.25 | 1 of 9 (4.17) |
| V29D R60F | nd / nd / nd | nd | 2 of 9 (3.56) |
| Q27E E32I S103G | nd / nd / 2.80 | 2.80 | 1 of 9 (4.50) |

A selection of 3 entries from above:

| changes | log10 Kd, replicates | mean, log10 nM | empty controls |
|---|---|---|---|
| E61V | -0.05 / 0.48 / 0.19 | 0.21 | 0 of 9 |
| V39D S58G L102I | 4.78 / nd / nd | 4.78 | 1 of 9 (2.40) |
| E61Q L102Q S103N | nd / nd / nd | nd | 0 of 9 |

In this assay the parent's reference entry averaged 0.65; its copy inside this library read 1.68.
Empty control strains, which show no peptide, gave a signal in 18% of pairings with library AAYL50; the median was 4.19 and 95% of these signals were weaker than 2.99. No background was subtracted. The control count says in how many pairings with the empty strains this scFv gave a signal, with their mean in brackets.

From the AlphaSeq antibody data of Engelhart et al. 2022 (doi:10.1038/s41597-022-01779-4), copy in the FLAb collection.